ΔTm and IC50 data for three compounds are collected here from patent US20240139189A1, “N6-ADENOSINE-[…] INHIBITORS IN CANCER TREATMENT” (priority 2021, published 2024).

The chains behind the UniProt entries cited, without tags or fusion partners.
UniProt Q9UBP6, whole entry, species assumed: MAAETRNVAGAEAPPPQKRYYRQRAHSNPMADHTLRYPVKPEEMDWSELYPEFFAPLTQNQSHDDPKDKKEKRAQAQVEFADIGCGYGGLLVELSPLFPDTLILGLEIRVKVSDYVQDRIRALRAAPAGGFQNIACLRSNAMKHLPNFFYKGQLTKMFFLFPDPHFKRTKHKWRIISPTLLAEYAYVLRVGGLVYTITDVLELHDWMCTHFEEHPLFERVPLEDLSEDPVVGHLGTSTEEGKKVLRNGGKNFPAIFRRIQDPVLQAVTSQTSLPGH
UniProt Q86U44, whole entry, looked up: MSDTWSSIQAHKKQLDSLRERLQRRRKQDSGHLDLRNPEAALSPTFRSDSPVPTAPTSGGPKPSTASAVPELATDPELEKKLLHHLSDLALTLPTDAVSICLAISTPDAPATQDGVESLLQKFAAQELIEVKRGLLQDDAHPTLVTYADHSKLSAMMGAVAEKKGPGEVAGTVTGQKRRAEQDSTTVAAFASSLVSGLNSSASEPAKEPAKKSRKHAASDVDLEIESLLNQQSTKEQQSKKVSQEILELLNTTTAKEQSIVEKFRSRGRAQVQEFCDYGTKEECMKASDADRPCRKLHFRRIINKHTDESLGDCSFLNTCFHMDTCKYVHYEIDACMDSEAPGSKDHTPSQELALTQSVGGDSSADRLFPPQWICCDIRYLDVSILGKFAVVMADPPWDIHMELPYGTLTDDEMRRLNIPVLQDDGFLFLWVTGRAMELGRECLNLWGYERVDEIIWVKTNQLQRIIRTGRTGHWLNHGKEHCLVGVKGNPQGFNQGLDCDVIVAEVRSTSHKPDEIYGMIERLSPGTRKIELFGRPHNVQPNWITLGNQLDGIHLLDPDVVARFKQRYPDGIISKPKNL

The structures appear in SMILES notation.

The ΔTm is the change in melting temperature against a reference sample. The term IC50 denotes the concentration that gives 50% inhibition. Read a high IC50 as lower potency.

The target of assay [1] is METTL1 (Homo sapiens (Human), UniProt Q9UBP6). The assay is described as follows: Protein thermal shift assay, METTL1. Type of assay: binding. To be noted: read-out: ΔTm.
For assay [2], the target named is METTL3 (Homo sapiens (Human), UniProt Q86U44). The assay is described as follows: TR-FRET biochemical assay (time resolved-Förster resonance energy transfer). To be noted: IC50 data for N6-adenosine-methyltransferase. An excerpt:
The bonds formed are depicted in red. The IC50 values refer to the biochemical assay based on time resolved-Forster resonance energy transfer (TR-FRET). B) Superimposition of compounds 1 (grey, from X-ray with METTL3, PDB code: 7NHI) and 2 (cyan, drawn in Pymol).
In general terms: In TR-FRET formats the signal depends on donor and acceptor labels being close together.

For the compound `Nc1ncnc2c1ncn2[C@@H]1O[C@H](CSCC[C@H](N)C(=O)O)[C@@H](O)[C@H]1O` [SAH, S-adenosyl-L-homocysteine, reference compound], the ΔTm at 100 µM in assay [1] came to 3.5 °C. As for `CC1(C)CCN(Cc2ccc(N3CC(=O)NC4(CCN(c5ncnc6[nH]ncc56)CC4)C3)cc2)CC1` [Compound 56, 4-(4-((4,4-dimethylpiperidin-1-yl)methyl)phenyl)-9-(1H-pyrazolo[3,4-d]pyrimidin-4-yl)-1,4,9-triazaspiro[5.5]undecan-2-one], in assay [2], it took 140 nM to reach half-maximal inhibition (IC50). Still for that read-out and setting: with `CNc1cc(N2CCC3(CC2)CN(c2ccc(CN4CCC(C)(F)CC4)cc2)CC(=O)N3)ncn1` [Compound 53, 4-(4-((4-Fluoro-4-methylpiperidin-1-yl)methyl)phenyl)-9-(6-(methylamino)pyrimidin-4-yl)-1,4,9-triazaspiro[5.5]undecan-2-one] the figure was 69 nM.
